Results taken from PubChem BioAssay AID1461 (National Center for Advancing Translational Sciences (NCATS), 2008).
This is a selection; strong and weak results do not stand in their true shares. Inconclusive results are not listed. Some structures show a salt or complex split into parts, the way the source records it. Active and inactive are the calls of the source. The call rests on the fitted dose curve; in most records, active means well fitted inhibition curve with a large enough effect; inconclusive means small, poorly fitted or top-dose-only effect, or effect the other way; inactive means no such curve, though single readings can be large or run the other way.

Chains of the proteins cited; added tags and fusions are not shown.
UniProt Q6W5P4, whole entry: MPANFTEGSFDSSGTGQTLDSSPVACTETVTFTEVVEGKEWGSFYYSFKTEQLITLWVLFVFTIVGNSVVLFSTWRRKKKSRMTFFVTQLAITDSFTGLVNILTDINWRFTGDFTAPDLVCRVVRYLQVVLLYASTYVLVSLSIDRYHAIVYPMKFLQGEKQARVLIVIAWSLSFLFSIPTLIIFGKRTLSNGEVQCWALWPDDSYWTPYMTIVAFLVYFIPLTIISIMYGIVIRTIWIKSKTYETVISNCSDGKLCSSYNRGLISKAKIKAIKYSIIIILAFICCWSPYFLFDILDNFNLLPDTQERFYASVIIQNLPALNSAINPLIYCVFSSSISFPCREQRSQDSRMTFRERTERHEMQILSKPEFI

Target: Neuropeptide S receptor (Homo sapiens) (UniProt Q6W5P4)
Test: qHTS Assay for Antagonists of the Neuropeptide S Receptor: cAMP Signal Transduction; further: nearly all actives have a fitted effect of over 50% in size
Details: CHO-NPSR cells, cAMP TR-FRET, antagonist mode; at 38.3 µM (top of the series) unless noted
On the % scale 0 is the no-effect control and ±100 the full control effect.

Row | SMILES | activity change, negative = inhibition
1 | CC(C)c1ccc(NC2CCN(C(=O)OC(C)(C)C)CC2)cc1 | inactive: -25.6%
2 | COc1ccc(CN(CCCl)CCCl)cc1Cl | inactive: -12.4%
3 | CN(C)c1cccc(C(=O)NCC2(N3CCCCC3)CCCCC2)c1 | inactive: 4.77%
4 | O=C(OC1CN2CCC1CC2)c1ccc([N+](=O)[O-])cc1 (centres undefined) | inactive: -11.9%
5 | COc1ccc2c(c1O)-c1c(O)c(OC)cc3c1[C@H](C2)[N+](C)(C)CC3.O=[N+]([O-])c1cc([N+](=O)[O-])c([O-])c([N+](=O)[O-])c1[O-] | inactive: 9.28%
6 | N#CC1(Nc2ccccc2)CCN(CCc2ccccc2)CC1 | inactive: 9.47% [at 46.1 µM]
7 | O=C(NCC1(N2CCCCC2)CCCCC1)c1cccc([N+](=O)[O-])c1 | inactive: 3.45%
8 | O=C(NCC1(N2CCOCC2)CCCCC1)c1cc(=O)[nH]c2ccccc12 | inactive: -9.02% [at 46.1 µM]
9 | CN1CCN(CCOC(=O)C(O)(c2ccccc2)c2ccccc2)CC1 | inactive: 8.74%
10 | COc1ccc(NC2CCN(C(=O)OC(C)(C)C)CC2)cc1 | inactive: -7.51%
11 | O=[N+]([O-])c1cc([N+](=O)[O-])c(NCC2CCS(=O)(=O)C2)c([N+](=O)[O-])c1 (centres undefined) | inactive: -7.67%
12 | COc1ccc(NC2CCN(CCc3ccccc3)CC2)c(OC)c1 | inactive: -15.6% [at 46.1 µM]
13 | CCOc1ccc(C)cc1CN(CCCl)CCCl | inactive: -34.8%
14 | Cc1ccc(OCC(C)C)c(CN(CCCl)CCCl)c1 | inactive: 19.5%
15 | COc1ccc(C(=O)NCC2(N3CCCCC3)CCCCC2)c(OC)c1OC | inactive: 9.06%
16 | O=C(OC1CN2CCC1CC2)C1c2ccccc2Oc2ccccc21 (centres undefined) | inactive: 13.1% [at 46.1 µM]
17 | N#CC1(Nc2ccccc2)CCN(Cc2ccccc2)CC1 | inactive: -21.6%

Row | SMILES | activity change, negative = inhibition
18 | CCOC(=O)N1CCC(Nc2ccc(OC)cc2)CC1 | inactive: 11.8%
19 | O=C(NCC1(N2CCOCC2)CCCCC1)c1cc2ccccc2o1 | inactive: -8.09% [at 46.1 µM]
20 | CC(C)(C)OC(=O)N1CCC(Nc2ccccc2)CC1 | inactive: -6.54%
21 | CCOc1ncccc1C(=O)NCC1(N2CCOCC2)CCCCC1 | inactive: -19.5% [at 46.1 µM]
22 | CCCOc1ccc(C)cc1CN(CCCl)CCCl | inactive: -0.381%
23 | COc1cc(OC)cc(C(=O)NCC2(N3CCOCC3)CCCCC2)c1 | inactive: -9.52%
24 | CCC(CO)(C(=O)OC1CN2CCC1CC2)c1ccccc1 (centres undefined) | inactive: -4.62% [at 46.1 µM]
25 | Fc1ccccc1NC1CCN(Cc2ccccc2)CC1 | inactive: -11.9% [at 46.1 µM]
26 | CN(C)c1ccc(C(=O)NCC2(N3CCCCC3)CCCCC2)cc1 | inactive: 14.3%
27 | CCN1CCC(Nc2cccc(F)c2)CC1 | inactive: 10.8%
28 | CCOC(=O)C(CC)C1=NC(C)(C)Cc2ccccc21.O=[N+]([O-])c1cc([N+](=O)[O-])c(O)c([N+](=O)[O-])c1 (centres undefined) | inactive: 5.08%
29 | N#Cc1ccc(C(=O)NCC2(N3CCCCC3)CCCCC2)cc1 | inactive: 5.78%
30 | c1ccc(CN2CCC(Nc3ccccc3)CC2)cc1 | inactive: 1.81% [at 46.1 µM]
31 | COc1ccc(C(=O)NCC2(N3CCOCC3)CCCCC2)cc1OC | inactive: 15.5%
32 | O=C(OC1CN2CCC1CC2)C1c2ccccc2C=Cc2ccccc21 (centres undefined) | inactive: 3.9%
33 | O=C(O)c1cccc(Nc2c([N+](=O)[O-])cc([N+](=O)[O-])cc2[N+](=O)[O-])c1 | inactive: 8.64%
34 | N/C(=N\O)c1c(N)no[n+]1[O-] | inactive: -7.51% [at 46.1 µM]
